We go through 4 molecules from PubChem BioAssay (EPA / NIEHS).

Protein sequences, listed by entry. Tags and fused reporters are not part of them.
UniProt Q16236, whole entry: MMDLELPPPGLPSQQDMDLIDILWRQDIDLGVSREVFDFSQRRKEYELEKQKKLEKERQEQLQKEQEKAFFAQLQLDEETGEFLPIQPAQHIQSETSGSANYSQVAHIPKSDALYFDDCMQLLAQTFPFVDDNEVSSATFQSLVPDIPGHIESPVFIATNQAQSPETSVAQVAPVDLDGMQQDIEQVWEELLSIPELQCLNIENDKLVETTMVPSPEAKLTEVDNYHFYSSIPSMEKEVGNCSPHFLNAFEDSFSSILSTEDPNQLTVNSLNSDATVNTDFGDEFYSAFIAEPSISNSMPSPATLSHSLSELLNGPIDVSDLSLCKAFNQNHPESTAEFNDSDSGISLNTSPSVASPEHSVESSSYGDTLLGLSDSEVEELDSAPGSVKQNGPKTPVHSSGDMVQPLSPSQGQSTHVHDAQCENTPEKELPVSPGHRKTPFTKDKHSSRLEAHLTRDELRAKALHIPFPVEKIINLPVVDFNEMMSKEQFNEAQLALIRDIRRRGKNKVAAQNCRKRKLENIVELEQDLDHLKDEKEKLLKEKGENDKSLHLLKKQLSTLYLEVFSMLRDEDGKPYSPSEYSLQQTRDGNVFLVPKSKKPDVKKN
UniProt P40763, whole entry: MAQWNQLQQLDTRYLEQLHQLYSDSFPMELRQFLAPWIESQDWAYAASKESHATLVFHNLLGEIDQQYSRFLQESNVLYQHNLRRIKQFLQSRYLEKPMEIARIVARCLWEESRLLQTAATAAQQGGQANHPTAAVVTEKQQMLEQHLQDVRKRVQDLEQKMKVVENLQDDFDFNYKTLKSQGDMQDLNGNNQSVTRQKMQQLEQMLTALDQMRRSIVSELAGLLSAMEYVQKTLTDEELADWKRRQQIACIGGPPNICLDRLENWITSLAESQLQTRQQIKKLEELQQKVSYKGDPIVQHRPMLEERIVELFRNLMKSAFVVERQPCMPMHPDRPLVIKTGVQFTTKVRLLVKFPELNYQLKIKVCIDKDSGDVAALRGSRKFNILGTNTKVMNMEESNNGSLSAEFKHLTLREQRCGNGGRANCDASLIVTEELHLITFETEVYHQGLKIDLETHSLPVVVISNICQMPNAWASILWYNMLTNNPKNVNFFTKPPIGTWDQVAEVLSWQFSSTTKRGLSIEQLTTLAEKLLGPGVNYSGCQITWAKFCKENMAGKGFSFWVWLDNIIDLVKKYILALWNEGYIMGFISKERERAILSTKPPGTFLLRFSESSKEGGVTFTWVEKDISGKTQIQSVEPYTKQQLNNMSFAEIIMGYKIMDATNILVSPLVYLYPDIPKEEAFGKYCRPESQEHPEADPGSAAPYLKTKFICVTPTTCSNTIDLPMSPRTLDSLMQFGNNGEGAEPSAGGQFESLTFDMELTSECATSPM
UniProt P04637, whole entry: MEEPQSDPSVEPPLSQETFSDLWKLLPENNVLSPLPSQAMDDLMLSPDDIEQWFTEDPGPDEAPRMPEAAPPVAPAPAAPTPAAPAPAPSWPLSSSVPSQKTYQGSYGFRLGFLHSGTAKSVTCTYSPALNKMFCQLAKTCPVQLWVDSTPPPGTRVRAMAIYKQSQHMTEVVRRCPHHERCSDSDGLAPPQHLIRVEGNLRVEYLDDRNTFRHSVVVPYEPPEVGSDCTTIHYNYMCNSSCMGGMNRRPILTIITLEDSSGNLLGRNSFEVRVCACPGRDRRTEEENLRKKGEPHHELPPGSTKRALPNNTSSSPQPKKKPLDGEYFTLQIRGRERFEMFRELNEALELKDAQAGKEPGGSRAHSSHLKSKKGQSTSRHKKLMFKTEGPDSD

Read-out in test [1]: Pyruvate Dehydrogenase Kinase 4 (PDK4), PDK4 (gene 5166)
Kind of test: LTEA_HepaRG_PDK4: Life Technologies and Expression Analysis (LTEA) Assay for Pyruvate Dehydrogenase Kinase 4 (PDK4) using HepaRG (AID 2283525). To be noted: actives raise or lower the signal; mRNA level, 48 h. Summed up:
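HepaRG cells plated 48 h, then switched to serum-free induction medium and exposed in duplicate for 48 h to 8 half-log concentrations from 100 uM in 0.5% DMSO. PDK4 mRNA measured by qRT-PCR, normalized to ACTB, GAPDH and POLR2A; bidirectional fit versus DMSO.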

Read-out in test [2]: NAD(P)H dehydrogenase [quinone] 1 (NQO1), NQO1 (gene 1728)
Kind of test: LTEA_HepaRG_NQO1: Life Technologies and Expression Analysis (LTEA) Assay for NAD(P)H dehydrogenase [quinone] 1 (NQO1) using HepaRG (AID 2283526). To be noted: actives raise or lower the signal; mRNA level, 48 h. Summed up: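 Human HepaRG hepatic cells received chemicals for 48 h in serum-free induction medium with 0.5% DMSO, up to 100 uM. Expression was assessed by TaqMan qRT-PCR against housekeeping controls and fitted bidirectionally against DMSO.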

Read-out in test [3]: Nuclear factor erythroid 2-related factor 2 (Homo sapiens) (UniProt Q16236)
Kind of test: LTEA_HepaRG_NFE2L2: Life Technologies and Expression Analysis (LTEA) Assay for Nuclear factor erythroid 2-related factor 2 (NFE2L2) Transcription Factor using HepaRG (AID 2283527).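 Note: TaqMan qRT-PCR transcript level normalised to ACTB GAPDH and POLR2A housekeeping genes.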 To be noted: actives raise or lower the signal; mRNA level, 48 h. Summed up:
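Differentiated human HepaRG cells, serum-free induction medium, exposed 48 h in duplicate to eight half-log concentrations up to 100 uM in 0.5% DMSO. NFE2L2 mRNA by Fluidigm TaqMan qRT-PCR, normalised to ACTB, GAPDH, POLR2A; bidirectional change versus DMSO.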

Read-out in test [4]: succinate dehydrogenase complex iron sulfur subunit B (SDHB), SDHB (gene 6390)
Kind of test: LTEA_HepaRG_SDHB: Life Technologies and Expression Analysis (LTEA) Assay for succinate dehydrogenase complex iron sulfur subunit B (SDHB) using HepaRG (AID 2283528). To be noted: actives raise or lower the signal; mRNA level, 48 h. Summed up:
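A human HepaRG culture in serum-free induction medium received test chemicals for 48 h over an eight-point range capped at 100 uM. SDHB expression change was quantified by qRT-PCR.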

Read-out in test [5]: Signal transducer and activator of transcription 3 (Homo sapiens) (UniProt P40763)
Kind of test: LTEA_HepaRG_STAT3: Life Technologies and Expression Analysis (LTEA) Assay for Signal transducer and activator of transcription (STAT3) using HepaRG (AID 2283529). To be noted: actives raise or lower the signal; mRNA level, 48 h. Summed up:
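Differentiated HepaRG cells, serum-free induction medium, dosed 48 h in duplicate, 8 half-log concentrations from 100 uM in 0.5% DMSO. STAT3 mRNA by qRT-PCR, normalised to ACTB, GAPDH, POLR2A; bidirectional fit versus DMSO.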

Read-out in test [6]: solute carrier (SLCO1B1), SLCO1B1 (gene 10599)
Description: LTEA_HepaRG_SLCO1B1: Life Technologies and Expression Analysis (LTEA) Assay for solute carrier (SLCO1B1) using HepaRG (AID 2283530). To be noted: actives raise or lower the signal; mRNA level, 48 h. Summed up: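 Human HepaRG cultures treated for 48 h with an eight-concentration half-log series topping at 100 uM; SLCO1B1 measured by qRT-PCR and fitted bidirectionally relative to DMSO.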

Read-out in test [7]: sulfotransferase 2A1 (SULT2A1), SULT2A1 (gene 6822)
Kind of test: LTEA_HepaRG_SULT2A1: Life Technologies and Expression Analysis (LTEA) Assay for sulfotransferase 2A1 (SULT2A1) using HepaRG (AID 2283531). To be noted: actives raise or lower the signal; mRNA level, 48 h. Summed up:
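Gene-expression endpoint in a human liver cell line: SULT2A1 mRNA change after 48 h chemical treatment, curves fitted in both directions relative to 0.5% DMSO vehicle. Concentrations spanned eight half-log steps from 100 uM.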

Read-out in test [8]: Transforming Growth Factor (TGFA), TGFA (gene 7039)
Kind of test: LTEA_HepaRG_TGFA: Life Technologies and Expression Analysis (LTEA) Assay for Transforming Growth Factor (TGFA) using HepaRG (AID 2283532). To be noted: actives raise or lower the signal; mRNA level, 48 h. The method in brief: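 Differentiated HepaRG cells exposed 48 hours in serum-free induction medium, 0.5% DMSO vehicle, 8-point half-log series from 100 uM, in duplicate. TGFA mRNA by TaqMan qRT-PCR, normalised to ACTB, GAPDH, POLR2A; bidirectional fit versus DMSO.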

Read-out in test [9]: Transforming Growth Factor (TGFB1), TGFB1 (gene 7040)
Kind of test: LTEA_HepaRG_TGFB1: Life Technologies and Expression Analysis (LTEA) Assay for Transforming Growth Factor (TGFB1) Transporter using HepaRG (AID 2283533). To be noted: actives raise or lower the signal; mRNA level, 48 h. Summed up: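 Eight-point concentration-response (max 100 uM, half-log) in HepaRG under serum-free induction conditions, 48 h. TGFB1 mRNA by qRT-PCR, housekeeping-normalized.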

Read-out in the next test: TIMP1, TIMP1 (gene 7076)
Kind of test: LTEA_HepaRG_TIMP1: Life Technologies and Expression Analysis (LTEA) Assay for TIMP1 using HepaRG (AID 2283534).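 Note: TaqMan qRT-PCR signal normalized to ACTB GAPDH and POLR2A housekeeping genes.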 To be noted: actives raise or lower the signal; mRNA level, 48 h. Summed up: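 TIMP1 induction or repression in HepaRG cells after 48 h chemical exposure (eight concentrations, highest 100 uM), assessed by normalized qRT-PCR with bidirectional fitting to DMSO controls.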

Read-out in test [10]: Tumor necrosis factor receptor 1 (TNFRSF1A), TNFRSF1A (gene 7132)
Kind of test: LTEA_HepaRG_TNFRSF1A: Life Technologies and Expression Analysis (LTEA) Assay for Tumor necrosis factor receptor 1 (TNFRSF1A) using HepaRG (AID 2283535). To be noted: actives raise or lower the signal; mRNA level, 48 h. The method in brief:
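Assay uses 48 h chemical treatment of differentiated HepaRG monolayers, tested in duplicate at eight concentrations from 100 uM downward in 0.5% DMSO. mRNA is normalized to ACTB, GAPDH and POLR2A, with induction or suppression fitted relative to vehicle.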

Read-out in test [11]: Thyroid Hormone Responsive (THRSP), THRSP (gene 7069)
Description: LTEA_HepaRG_THRSP: Life Technologies and Expression Analysis (LTEA) Assay for Thyroid Hormone Responsive (THRSP) using HepaRG (AID 2283536). To be noted: actives raise or lower the signal; mRNA level, 48 h. Summed up: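 Differentiated HepaRG cells treated 48 h in serum-free induction medium with 8 half-log concentrations up to 100 uM (0.5% DMSO), duplicates. THRSP mRNA by TaqMan qRT-PCR normalised to ACTB, GAPDH, POLR2A; bidirectional fit versus DMSO.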

Read-out in test [12]: Cellular tumor antigen p53 (Homo sapiens) (UniProt P04637)
Description: LTEA_HepaRG_TP53: Life Technologies and Expression Analysis (LTEA) Assay for Tumor Protein P53 (TP53) using HepaRG (AID 2283537). To be noted: actives raise or lower the signal; mRNA level, 48 h. The method in brief:
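Gain or loss of TP53 mRNA signal is scored relative to 0.5% DMSO after 48 h chemical treatment of HepaRG liver cells, tested in duplicate at eight half-log concentrations up to 100 uM.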

Read-out in test [13]: UDP glucuronosyltransferase (UGT1A1), UGT1A1 (gene 54658)
Description: LTEA_HepaRG_UGT1A1: Life Technologies and Expression Analysis (LTEA) Assay for UDP glucuronosyltransferase (UGT1A1) using HepaRG (AID 2283538). To be noted: actives raise or lower the signal; mRNA level, 48 h. The method in brief: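 Human liver HepaRG cultures receive test chemical for 48 h, up to 100 uM in 0.5% DMSO, with phenobarbital induction controls. UGT1A1 mRNA is measured by qRT-PCR and normalized to ACTB, GAPDH and POLR2A.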

Read-out in test [14]: UDP glucuronosyltransferase (UGT1A6), UGT1A6 (gene 54578)
Description: LTEA_HepaRG_UGT1A6: Life Technologies and Expression Analysis (LTEA) Assay for UDP glucuronosyltransferase (UGT1A6) using HepaRG (AID 2283539). To be noted: actives raise or lower the signal; mRNA level, 48 h. The method in brief:
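Measures mRNA change in HepaRG hepatic cells exposed 48 h to chemicals (eight-point, maximum 100 uM, 0.5% DMSO vehicle) in serum-free induction medium. Expression normalized to endogenous controls; DMSO served as negative control and baseline.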

Read-out in test [15]: X-box binding protein 1 (XBP1), XBP1 (gene 7494)
Description: LTEA_HepaRG_XBP1: Life Technologies and Expression Analysis (LTEA) Assay for X-box binding protein 1 (XBP1) using HepaRG (AID 2283540). To be noted: actives raise or lower the signal; mRNA level, 48 h. Summed up: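 Eight concentrations (half-log, highest 100 uM, 0.5% DMSO) tested in duplicate on HepaRG cells over 48 h in serum-free induction medium; qRT-PCR of XBP1 normalised to ACTB, GAPDH, POLR2A.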

Test [16] in a line: LTEA_HepaRG_LDH_cytotoxicity: Cytotoxicity Assessment in the Life Technologies and Expression Analysis (LTEA) Assay (AID 2283563; active = hit-call score of the fitted dose curve at least 0.9, where 1 is the maximum). Summed up:
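Spent-medium LDH after 48 h chemical exposure of HepaRG cells in serum-free induction medium; eight concentrations, half-log dilutions from 100 uM, duplicate wells, fitted upward relative to 0.5% DMSO.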

The nature of test [17]: ATG_XTT_Cytotoxicity: Cytotoxicity Assessment in the Attagene TRANS-FACTORIAL HepG2 Assay (AID 2283584; active = hit-call score of the fitted dose curve at least 0.9, where 1 is the maximum). Summed up: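 24 h chemical exposure of reporter-transfected HepG2; XTT signal loss vs DMSO indicates cytotoxicity.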
A short description of test [18]: Tanguay_ZF_120hpf_MORT_legacy: (Legacy) Oregon State University Tanguay Lab 120 Hour Post-fertilization zebrafish Assay for Mortality (AID 2283633; active = hit-call score of the fitted dose curve at least 0.9, where 1 is the maximum;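 note: fitted as increase in binary mortality versus DMSO negative control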). Summed up:
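Single dechorionated Tropical 5D embryos were held with test chemical (0.64% DMSO final) from 6 to 120 hpf at 28C under foil. Deaths at 24 or 120 hpf were recorded as binary calls, analysed for increase over DMSO controls.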

Test [19] in a line: Tanguay_ZF_120hpf_YSE_legacy: (Legacy) Oregon State University Tanguay Lab 120 Hour Post-fertilization zebrafish Assay for Yolk Sac Edema (AID 2283634; active = hit-call score of the fitted dose curve at least 0.9, where 1 is the maximum). The method in brief:
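Single dechorionated embryos were held in sealed plates at 28C with test chemical (0.64% DMSO final) from 6 hpf until 120 hpf. Edema of the yolk sac was then recorded as a binary endpoint; non-mortality endpoints were skipped for dead embryos.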

This is a selection; strong and weak results do not stand in their true shares. Records with an inconclusive call do not appear. Active and inactive are the calls of the source. Rule for the calls, unless noted: active = hit-call score of the fitted dose curve at least 0.9, where 1 is the maximum; inactive = score below 0.9.

Consider `O=[N+]([O-])c1ccccc1[N+](=O)[O-]`, for which the call in test [1], in [2], in test [3], in [4], in test [5] and in test [6] was inactive. In addition, the outcome was “inactive” in test [7]; “inactive” in [8]; “inactive” in test [9]; “inactive” with TIMP1, TIMP1 (gene 7076); “inactive” in test [10]; “inactive” in test [11]. Also, the molecule was classed as inactive in test [12], in [13], in test [14], in [15], in test [16] and in test [17]. In addition, the molecule was classed as inactive in [19]. Also, in test [18], the AC50 is active: 14.3 µM.

As for `ClCCNCCCl`, the molecule was classed as inactive in test [17].

As for `CC(C)OP(OC(C)C)OC(C)C`, the molecule was called inactive in test [17].

Turning to `CCOP(=O)(Cl)Cl`, in test [17], the molecule was classed as inactive.

Broadly, the AC50 is the concentration at which the activity in the assay is half-maximal.
